Test results from ChEMBL document CHEMBL1124573, “Alterations in the stereochemistry of the kappa-selective opioid agonist U50,488 result in high-affinity sigma ligands” (1989).

Assay: Selectivity ratio for affinities determined by using [3H]BREM and [3H]-(+)-3-PPP in guinea pig ileum

CN(C(=O)Cc1ccc(Cl)c(Cl)c1)[C@H]1CCCC[C@@H]1N1CCCC1
Ratio: 0.07
